Data on 8 compounds can be found in PubChem BioAssay AID836 (Columbia University Molecular Screening Center, 2007).

Each structure is given as a SMILES string. Only a part is listed here, and it is no random draw. The source made the active and inactive calls.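 How the source made its calls: active means inhibition above the batch mean plus 3 SD and confirmed as a hit by visual image inspection (cut at about 30% in these data, passing the limit was not always enough); inconclusive means above the inhibition threshold but rejected on visual inspection; inactive means the rest.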

The nature of this test: modifiers of F-actin cytoskeleton organization, primary screen, imaging, HUVEC, phalloidin staining, high-content imaging (AID 836). The settings on record: HUVEC TNFa F-actin phalloidin imaging, at 2 µM, active compounds read high.
Regarding `c1ccc(CN2CCC(Nc3ccccc3)CC2)cc1`, the inhibition (as a rule, the relative decrease from the control value, in per cent) was inactive: 12%.
In the case of `N/C(=N\O)c1c(N)no[n+]1[O-]`, the inhibition was inactive: -41.1%.
With `CN1CCC(Nc2cccc(F)c2)CC1`, the inhibition is inactive: -21.7%.
For `O=C(NCC1(N2CCOCC2)CCCCC1)c1cc(=O)[nH]c2ccccc12`, the inhibition was inactive: 11.2%.
Then `N#CC1(Nc2ccccc2)CCN(CCc2ccccc2)CC1`, with inactive: 20.8%; and `COc1ccc(NC2CCN(CCc3ccccc3)CC2)c(OC)c1`, with inactive: 19.5%.
Then `O=C(NCC1(N2CCOCC2)CCCCC1)c1cc2ccccc2o1`, with inactive: 3.7%; and `O=C(OC1CN2CCC1CC2)C1c2ccccc2Oc2ccccc21` (stereo not drawn), with inactive: -21%.
